Reference: PubChem BioAssay AID624391 (National Center for Advancing Translational Sciences (NCATS), 2012)
The entries are a selection whose mix differs from that of the whole data set. Calls of active or inactive are those of the source. Calls come from the whole dose curve; as a rule, active = well fitted curve in the direction sought with a large enough effect; inactive = no such curve, though single readings can be large or run the other way.

Protein sequences, listed by entry. Tags and fused reporters are not part of them.
UniProt P14618, whole entry, looked up: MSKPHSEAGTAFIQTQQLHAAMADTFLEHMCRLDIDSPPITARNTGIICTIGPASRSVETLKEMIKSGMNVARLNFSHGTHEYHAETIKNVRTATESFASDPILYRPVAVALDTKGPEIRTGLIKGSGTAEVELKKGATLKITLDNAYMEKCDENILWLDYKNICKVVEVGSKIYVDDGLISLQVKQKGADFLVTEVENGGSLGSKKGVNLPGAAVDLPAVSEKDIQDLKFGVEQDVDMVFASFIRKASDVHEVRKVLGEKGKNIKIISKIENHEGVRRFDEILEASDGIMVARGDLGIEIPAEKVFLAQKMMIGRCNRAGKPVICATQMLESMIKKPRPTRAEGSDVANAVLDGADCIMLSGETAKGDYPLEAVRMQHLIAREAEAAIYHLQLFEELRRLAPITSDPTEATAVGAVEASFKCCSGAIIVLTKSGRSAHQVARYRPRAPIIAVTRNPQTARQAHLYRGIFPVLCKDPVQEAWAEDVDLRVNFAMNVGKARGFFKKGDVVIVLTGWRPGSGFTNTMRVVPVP

What follows are compounds tested against Pyruvate kinase PKM (Homo sapiens) (UniProt P14618) (assay: qHTS for Activators of Human Muscle Isoform 2 Pyruvate Kinase: Extended Characterization for Probe 2). Settings: purified hPK-M2, Kinase-Glo ATP luminescence, 1 h.
Description: Human pyruvate kinase muscle 2 (hPK-M2) enzyme was supplied as a highly purified (>95% pure) preparation from Harvard Medical School and assayed for its ability to generate ATP from ADP using phosphoenolpyruvate (PEP) as a substrate. ATP generation was detected in a coupled reaction by luciferase-mediated luminescence, an ATP-dependent process. Pyruvate kinase substrates, PEP and ADP, were present in the assay at Km and approximately 10-fold below Km respectively. The enzyme was assayed at an intermediate level of activity to screen for both inhibitors and activators. NIH Chemical Genomics Center [NCGC] NIH Molecular Libraries Probe Centers Network [MLPCN] MLPCN Grant: MH085679 Assay Submitter (PI): Matthew G. Vander Heiden, Harvard Medical School
Three uL of substrate mix (at r.t.) in assay buffer (50 mM Imidazole pH7.2, 50 mM KCl, 7 mM MgCl2, 0.01% Tween 20, 0.05% BSA) was dispensed into white solid bottom 1,536 well microtiter plates so that the final concentrations of substrates in the assay were 0.1 mM ADP and 0.5 mM PEP. 23 nL of compound were delivered by a pin tool and 1 uL of enzyme mix (final concentration of 0.1 nM) in assay buffer (4 degree Celsius) was added. […] Two uL of detection mix (Kinase-Glo, Promega; at 4 degree Celsius protected from light) was added and luminescence read by a ViewLux (Perkin Elmer) at 1 second exposure/plate. […]

| SMILES | Potency |
| --- | --- |
| Nc1cccc(S(=O)(=O)N2CCCN(S(=O)(=O)c3ccc4c(c3)OCCO4)CC2)c1 | active: 130 nM |
